In ChEMBL document CHEMBL2150956, “The first activation study of a bacterial carbonic anhydrase (CA). The thermostable α-CA from Sulfurihydrogenibium yellowstonense YO3AOP1 is highly activated by amino acids and amines” (Bioorg Med Chem Lett, 2012):

Assays:
[1] = system: Sulfurihydrogenibium yellowstonense; test: Activity of Sulfurihydrogenibium yellowstonense YO3AOP1 recombinant CA expressed in Escherichia coli BL21(DE3) after 15 mins by phenol red staining based stopped flow CO2 hydration assay
[2] = system: Sulfurihydrogenibium yellowstonense; settings: YO3AOP1, 10 uM
N[C@@H](Cc1ccccc1)C(=O)O [3] = settings: Homo sapiens; 10 uM
N[C@H](Cc1ccccc1)C(=O)O [4] = settings: Homo sapiens; 10 uM
N[C@@H](Cc1ccccc1)C(=O)O [5] = settings: Homo sapiens; 10 uM; remark: listed apart in the source
N[C@H](Cc1ccccc1)C(=O)O [6] = settings: Homo sapiens; 10 uM; remark: listed apart in the source

KA [1] | kcat [2] | Compound | also measured
0.008 µM | 1.4 ×10⁷ /s | N[C@@H](Cc1ccccc1)C(=O)O | –
5.13 µM | 4.1 ×10⁶ /s | N[C@H](Cc1ccccc1)C(=O)O | –
– | – | Carbonic anhydrase 1 (Homo sapiens), P00915 | kcat (N[C@@H](Cc1ccccc1)C(=O)O [3]): 19.8 ×10⁵ /s; kcat (N[C@H](Cc1ccccc1)C(=O)O [4]): 2.3 ×10⁵ /s
– | – | Carbonic anhydrase 2 (Homo sapiens) (from UniProt P00918) | kcat (N[C@@H](Cc1ccccc1)C(=O)O [5]): 5.7 ×10⁶ /s; kcat (N[C@H](Cc1ccccc1)C(=O)O [6]): 5.2 ×10⁶ /s
